The target in assay [1] is T1, human IL4RA-hFc (human, UniProt P24394 26-232).
T1 construct: mature; Coating antigen in ELISA
T1 sequence (looked up): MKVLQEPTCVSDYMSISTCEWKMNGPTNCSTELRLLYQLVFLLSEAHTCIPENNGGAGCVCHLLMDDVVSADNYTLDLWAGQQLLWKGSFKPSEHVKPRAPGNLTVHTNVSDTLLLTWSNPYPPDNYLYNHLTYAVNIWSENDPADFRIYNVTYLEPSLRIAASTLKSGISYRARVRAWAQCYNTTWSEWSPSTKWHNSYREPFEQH
Put plainly: competitive ELISA; blocks IL4-N-His (0.15 ug/ml) binding to coated IL4RA-hFc (2 ug/mL). As for the experimental part: The ELISA plates were coated with human IL4RA-hFc and blocked before the antibodies were added. […] After the plates were washed, mouse anti-His, HRP (purchased from CoWin Biosciences, Cat No. CW0285M) was added for incubation. The plates were subjected to another wash. Chromogenic reaction was started by adding TMB (Neogen, 308177) and was then terminated. At the end of the reaction, the OD value at 450 nm wavelength was measured by a plate reader, and was analyzed and processed by SoftMax Pro 6.2.1.
(§1) By 4-parameter logistic regression of absorbance vs. antibody concentration, the blocking EC₅₀ of the antibodies was calculated.

In assay [2] the target is T2, human IL4RA-mFc (human, UniProt P24394 26-232).
T2 construct: mature; Immunogen and coating antigen
Put plainly: indirect ELISA. As for the experimental part: (§2) Procedures: The ELISA plates were coated with human IL4RA-hFc or human IL4RA-mFc and were incubated, and target antibodies were added after blocking. […] The plates were incubated and washed before TMB (Neogen, 308177) was added for chromogenic reaction. At the end of the reaction, the absorbance at 450 nm was measured by a plate reader. The data were analyzed by SoftMax Pro 6.2.1.

In assay [3] the target is T2, human IL4RA-mFc. Nature of the assay: indirect ELISA; no Ab (0, blank). As for the experimental part:
as §2

In assay [4] the target is T2, human IL4RA-mFc. Put plainly: indirect ELISA. How it is done:
as §2
The source holds these as a separate data set. Background: In an ELISA, binding on a coated surface is turned into a signal by an enzyme label.

In assay [5] the target is T1, human IL4RA-hFc. Nature of the assay: competitive ELISA; blocks IL4-N-His binding to coated IL4RA-hFc. How it is done:
(§3) The ELISA plates were coated with human IL4RA-hFc and blocked before the antibodies were added. […] After the plates were washed, mouse anti-His, HRP (purchased from CoWin Biosciences, Cat No. CW0285A) was added for incubation. The plates were subjected to another wash. Chromogenic reaction was started by adding TMB (Neogen, 308177) and was then terminated. At the end of the reaction, the OD value at 450 nm wavelength was measured by a plate reader, and was analyzed and processed by SoftMax Pro 6.2.1.
as §1

In assay [6] the target is T1, human IL4RA-hFc. The description is as above. As for the experimental part:
as §3, §1
The source holds these as a separate data set.

The target of assay [7] is T1, human IL4RA-hFc. Nature of the assay: competitive ELISA; blocks IL4-N-His (0.15 ug/ml) binding to coated IL4RA-hFc (2 ug/mL). As for the experimental part:
as §3, §1
The source holds these as a separate data set.

Assay [8] addresses T2, human IL4RA-mFc. Nature of the assay: indirect ELISA, antigen coated 1 ug/mL. How it is done:
as §2

For assay [9], the target named is T1, human IL4RA-hFc. Nature of the assay: competitive ELISA; blocks IL4-N-His binding to coated IL4RA-hFc. The source holds these as a separate data set.
In assay [10] the target is T1, human IL4RA-hFc. Nature of the assay: competitive ELISA vs IL4-N-His; Ab 3 ug/mL. How it is done: as §3
For assay [11], the target named is T2, human IL4RA-mFc. Put plainly: indirect ELISA, antigen coated 1 ug/mL. As for the experimental part:
as §2
The source holds these as a separate data set.

Assay [12] concerns the target T2, human IL4RA-mFc. Put plainly: indirect ELISA; Ab 0.333 ug/mL diluted 1:729. How it is done:
as §2

Numbering of substitutions follows the chain as printed.

B1: 18H7 H2L2 (antibody, IgG4, V domains shown)
VH: EVQLVESGGGLVQPGGSLRLSCAASGFTFSSSYMSWVRQAPGKRLELVAAINSNGGKTYYADSVKGRFTISRDNSKNTLYLQMSSLRAEDTAVYYCTRQRGNYVGAMDYWGQGTSVTVSS
VL: DIQMTQSPSSLSASVGDRVTITCQASQDVSTAVVWYQQKPGKSPKLLIYSASYLYTGVPSRFSGSGSGTDFTFTISSLQPEDIATYYCHQYYGSPPTFGGGTKLEIKR
For orientation: EC50 means the concentration at which the effect is half-maximal. In the case of B1, the EC50 with human IL4RA-hFc [1] was 2.3 nM; with human IL4RA-mFc [2] it was 0.087 nM.

B2: 18H7 H1L1 (antibody, IgG4, V domains shown)
VH: B1 VH with E1D, P14L, A40T, G42E
VL: B1 VL with A13T, Q24K, L54R, L78V
As for B2, the EC50 in the assay with human IL4RA-hFc [1] is 1.66 nM; in the assay with human IL4RA-mFc [2], 0.087 nM.

B3: 18H7 H3L2 (antibody, IgG4, V domains shown)
VH: B1 VH with R44G, L47Y, A49S
VL: B1 VL
Regarding B3, the figures for the half-maximal effective concentration (EC50) in the assay with human IL4RA-hFc [1] and in the assay with human IL4RA-mFc [2] were 2.33 nM and 0.1 nM, respectively.

B4: 18H7 H2L3 (antibody, IgG4, V domains shown)
VH: B1 VH
VL: B1 VL with V33L, V34A, S43A, Y53N, Y55E
For B4, the EC50 came to 2.51 nM with human IL4RA-hFc [1] and 0.094 nM in the assay with human IL4RA-mFc [2].

B5: 18H7 H3L3 (antibody, IgG4, V domains shown)
VH: B1 VH with R44G, L47Y, A49S
VL: B1 VL with V33L, V34A, S43A, Y53N, Y55E
For the molecule B5, a half-maximal response in the assay with human IL4RA-mFc [2] (EC50) required 0.446 nM.

B6: 13E5 H4L2 (antibody, IgG4, V domains shown)
VH: QVQLVQSGAEVVKPGASVKVSCKTSGYTFTEYTIHWVRQAPGQSLEWIGGINPNNGGTVYNQKFQGKVTLTVDKSTSTAYMELSSLRSEDTAVYYCARVRRGMDYWGQGTSVTVSS
VL: DIQMTQSPSSLSASVGDRVTITCRASQDVTTAVAWYQQKPGKAPKLLIYSASSRYTGVPSRFSGSGSGTDFTLTISSVQPEDLATYYCQQHYSAPWTFGGGTNLEIKR
B6 returned an OD450 with human IL4RA-mFc [3] of 0.063. For the same molecule, the EC50 with human IL4RA-mFc [4] came out at 0.079 nM; with human IL4RA-hFc [5], 1.15 nM.

B7: 13E5 H3L3 (antibody, IgG4, V domains shown)
VH: B6 VH with T24A, S44G, V59N, N61A, K67R, L70I
VL: B6 VL with V33L, R54L, V78L, L83F
Turning to B7, the EC50 in the assay with human IL4RA-hFc [6] is 0.636 nM; in the assay with human IL4RA-mFc [4], 0.042 nM. In addition, the OD450 with human IL4RA-mFc [3] was 0.056.

B8: 13E5 H1L1 (antibody, IgG4, V domains shown)
VH: B6 VH with V5Q, V20I, R38K, P41H, V68A, S84R, R87T
VL: B6 VL with S9K, A13T, A43S, S53Y, L73F
On to B8, for which the EC50 was determined as 0.875 nM in the assay with human IL4RA-hFc [6] and 0.035 nM with human IL4RA-mFc [4].

B9: 13E5 H2L2 (antibody, IgG4, V domains shown)
VH: B6 VH with V59N
VL: B6 VL
Turning to B9, the EC50 with human IL4RA-hFc [6] is 0.819 nM; with human IL4RA-mFc [4], 0.04 nM.

B10: 13E5 H4L4 (antibody, IgG4, V domains shown)
VH: B6 VH
VL: B6 VL with S53Y
Regarding B10, the EC50 worked out at 0.079 nM with human IL4RA-mFc [4], 1.33 nM with human IL4RA-hFc [5] and 0.532 nM in the assay with human IL4RA-hFc [7].

B11: 20G10 H3L3 (antibody, IgG4, V domains shown)
VH: QVTLKESGPTLVKPTQTLTLTCTFSGFSLSTSGMGVGWIRQPPGKALEWLALIWWADDKRYSTSLKSRLTISKDTSKNQVVLTITNVDPVDTATYYCARITRGNSAMDFWGQGTSVTVSS
VL: DIQMTQSPSSLSASVGDRVTITCRASENVYSYLNWYQQKPGKAPKLLIYNAKSLQSGVPSRFSGSGSGTDFTLTISSLQPEDFATYYCQHHYGIPWTFGGGTKLEIKR
The molecule B11 showed an EC50 with human IL4RA-hFc [7] of 0.742 nM.

B12: dupilumab VAB 16F3-1 (antibody, V domains shown)
VH: EVQLVESGGGLVQPGRSLRLSCEASGFTFDDYAMHWVRQAPGKGLEWVSGLSRTSVSIGYADSVKGRFTISRDNAKNSLYLEMNSLRPEDTALYYCAKWGTRGYFDYWGQGTLVTVSS
VL: DIQMTQSPSSVSASVGDRVTITCRASQDISIWLAWYQQSPGKAPKLLINVASRLQSGVPSRFSGSGSGTDFTLTINSLQPEDFVTYYCQQANSFPITFGQGTRLATKR
Take B12: the concentration giving a half-maximal response (EC50) came to 0.077 nM with human IL4RA-mFc [8]; 0.943 nM in the assay with human IL4RA-hFc [6]; 3.03 nM with human IL4RA-hFc [9]; 0.066 nM with human IL4RA-mFc [4]; 0.077 nM with human IL4RA-mFc [11]; 1.55 nM in the assay with human IL4RA-hFc [5]. Besides, the concentration for a half-maximal effect (EC50) in the assay with human IL4RA-hFc [7] was 0.865 nM; with human IL4RA-hFc [1], 3.03 nM; with human IL4RA-mFc [2] it was 0.067 nM. For the same molecule, the OD450 with human IL4RA-hFc [10] stood at 0.059; in the assay with human IL4RA-mFc [12] it was 0.147.

The values are drawn from patent US20230295312A1 (AKESO BIOPHARMA, published 2023).
